{"source": "patent US11111250B2", "about": "“Polymorphs of Ribociclib mono succinate” (SHILPA MEDICARE LIMITED, priority 2017, dated 2021)", "key": {"[1]": {"details": "hydrate, as obtained by the process"}}}
{"substance": "Ribociclib mono succinate", "values": [{"measurement": "moisture content", "setting": "[1]", "result": "less than 5.0%"}, {"measurement": "moisture absorption", "setting": "normal atmospheric conditions", "result": "no moisture absorption observed"}, {"measurement": "PXRD of the sample after humidity exposure and drying", "setting": "sample obtained after 3 hours at 90% RH, dried at 60-80° C.", "result": "resembles with the Crystalline Ribociclib mono succinate Form-SRS-I"}]}
